# Test results taken from patent publication US9585929B2 (ZHEJIANG KANGLAITE GROUP CO., LTD., priority 2014, dated 2017).
# Tested on: MDA-MB-435 human breast cancer
# Assay: MDA-MB-435 human breast cancer model in nude mice
# Type: in vivo, BALB/C nude mice
# Conditions: Paclitaxel 50 mg/kg ip × 1
# Procedure: The injection of the invention (10 g/100 ml), Paclitaxel injection (30 mg/5 ml) and normal saline
# MDA-MB-435 human breast cancer: inoculated in BALB/C nude mice (SPF grade), 18-20 g, female
# Tumor blocks of well-grown MDA-MB-435 cancer were homogenized in normal saline to obtain cell suspensions in the concentration of 1-2×10^7 cells/ml. Each nude mouse was inoculated with 0.2 ml of the suspension at the right axilla subcutaneously, and the mice were grouped randomly. The administration began from the 7th day after the inoculation. 18 Days after the inoculation, the mice were sacrificed. Tumor blocks were taken out and weighed. Differences of tumor weight between each experimental group and the control group were compared, and tumor inhibition rates and Q values were calculated.
smiles,measurement,value
"CC(=O)O[C@H]1C(=O)[C@@]2(C)[C@H]([C@H](OC(=O)c3ccccc3)[C@]3(O)C[C@H](OC(=O)[C@H](O)[C@@H](NC(=O)c4ccccc4)c4ccccc4)C(C)=C1C3(C)C)[C@]1(OC(C)=O)CO[C@@H]1C[C@@H]2O [Taxol, paclitaxel]",Weight of tumor x ± SD,1.01 ± 0.33 g
